For 17 molecules, Kd results are on record in patent US20150368338A1 (Janssen / Centocor, published 2015).

Residue numbers refer to the chain shown, from its start.

The labels stand for the following.
B1: IFWM3389 (antibody, IgG1, V domains shown)
VH: EVQLVQSGAEVKKPGESLKISCKGSGYSFTSYWIGWVRQMPGKGLEWMGIIDPSDSDTRYSPSFQGQVTISADKSISTAYLQWSSLKASDTAMYYCARHPGLAWAPDFDYWGQGTLVTVSS
VL: DIQMTQSPSSLSASVGDRVTITCRASQSIDDFLNWYQQKPGKAPKLLIYFASSLQSGVPSRFSGSGSGTDFTLTISSLQPEDFATYYCQQSHTLPLTFGQGTKVEIK
notes: mAb; IgG1/kappa said of the parent and of selected mAbs; also called IFWB3124
B2: IFWM3372 (antibody, IgG1, V domains shown)
VH: B1 VH with R59A, A103N
VL: DIQMTQSPSSLSASVGDRVTITCRASQSIDNNNLNWYQQKPGKAPKLLIYAASSLQSGVPSRFSGSGSGTDFTLTISSLQPEDFATYYCQQGYDWPLTFGQGTKVEIK
notes: mAb; IgG1/kappa said of the parent and of selected mAbs; also called IFWB3107
B3: IFWM3391 (antibody, IgG1, V domains shown)
VH: B1 VH
VL: B1 VL with D30N, D31N, H92F, T93N, L96I
notes: mAb; IgG1/kappa said of the parent and of selected mAbs; also called IFWB3126
B4: IFWM3393 (antibody, IgG1, V domains shown)
VH: B1 VH
VL: B1 VL with D30T, D31S, F32S, H92F, T93D
notes: mAb; IgG1/kappa said of the parent and of selected mAbs; also called IFWB3128
B5: IFWM3397 (antibody, IgG1, V domains shown)
VH: B1 VH
VL: B1 VL with D30T, D31G, F50A, T93D, L94F
notes: mAb; IgG1/kappa said of the parent and of selected mAbs; also called IFWB3132
B6: IFWM3370 (antibody, IgG1, V domains shown)
VH: B1 VH with R59A, A103N
VL: B2 VL with N32S, N33Y, A51G, Y93W
notes: mAb; IgG1/kappa said of the parent and of selected mAbs; also called IFWB3105
B7: IFWM3419 (antibody, IgG1, V domains shown)
VH: B1 VH
VL: B1 VL with D30A, D31G, F50Y, H92Y, T93S, L94I, L96I
notes: mAb; IgG1/kappa said of the parent and of selected mAbs; also called IFWB3154
B8: IFWM3403 (antibody, IgG1, V domains shown)
VH: B1 VH
VL: B1 VL with D30R, D31N, F32S, Y49K, F50W, S91L, H92Y, T93D, L94W
notes: mAb; IgG1/kappa said of the parent and of selected mAbs; also called IFWB3138
B9: IFWM3375 (antibody, IgG1, V domains shown)
VH: B1 VH with R59A, A103N
VL: B2 VL with D30R, N33Y, W95T
notes: mAb; IgG1/kappa said of the parent and of selected mAbs; also called IFWB3110
B10: IFWM3376 (antibody, IgG1, V domains shown)
VH: B1 VH with R59A, A103N
VL: B2 VL with D30S, N32S, Y50H, A51W, G92W, W95H
notes: mAb; IgG1/kappa said of the parent and of selected mAbs; also called IFWB3111
B11: IFWM3418 (antibody, IgG1, V domains shown)
VH: B1 VH with A103N
VL: B1 VL with D30A, D31G, F50Y, H92Y, T93S, L94I, L96I
notes: mAb; IgG1/kappa said of the parent and of selected mAbs; also called IFWB3153
B12: IFWM3396 (antibody, IgG1, V domains shown)
VH: B1 VH
VL: B1 VL with D30S, D31E, F32Y, T93S, L96I
notes: mAb; IgG1/kappa said of the parent and of selected mAbs; also called IFWB3131
B13: IFWM3377 (antibody, IgG1, V domains shown)
VH: B1 VH with R59A, A103N
VL: B2 VL with D30R, N32T, Y50H, A51W, W95T, L97F
notes: mAb; IgG1/kappa said of the parent and of selected mAbs; also called IFWB3112
B14: IFWM3398 (antibody, IgG1, V domains shown)
VH: B1 VH
VL: B1 VL with D30N, D31G, F32V, T93D, L94F
notes: mAb; IgG1/kappa said of the parent and of selected mAbs; also called IFWB3133
B15: IFWM3371 (antibody, IgG1, V domains shown)
VH: B1 VH with R59A, A103N
VL: B2 VL with D30A, N32T, Y50H, A51W, G92W, W95N
notes: mAb; IgG1/kappa said of the parent and of selected mAbs; also called IFWB3106
B16: IFWM3395 (antibody, IgG1, V domains shown)
VH: B1 VH
VL: B1 VL with D30S, D31K, H92Y, T93D, L94F, L96I
notes: mAb; IgG1/kappa said of the parent and of selected mAbs; also called IFWB3130
B17: IFWM3420 (antibody, IgG1, V domains shown)
VH: B1 VH with R59A, A103N
VL: B1 VL with D30A, D31G, F50Y, H92Y, T93S, L94I, L96I
notes: mAb; IgG1/kappa said of the parent and of selected mAbs; also called IFWB3155

The experiment has as its target T1, IFN-αB2 (human, UniProt P32881 24-189).
T1 construct: Recombinant, HEK293; also called IFN-α8
The experiment can be described thus: ProteOn SPR, cell supernatant.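 Note: each binding measurement used just a single antigen concentration.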
In the case of B1, the Kd (commonly a measure of binding affinity in units of concentration) worked out at 0.01 nM.
B2 gave a Kd of 0.154 nM.
B3 came in with a dissociation constant Kd of 0.029 nM.
For B4, binding was characterised by a dissociation constant (Kd) of 0.07 nM.
The value for B5 was 0.042 nM; that for B6 was 0.024 nM.
Molecule B7 gave a Kd of 0.09 nM.
For B8, binding was put at a Kd of 0.008 nM.
Molecule B9 had an equilibrium dissociation constant (Kd) of 0.033 nM.
For B10 the value was 0.037 nM; for B11, 0.206 nM; for B12, 0.048 nM.
B13 had a dissociation constant (Kd) of 0.058 nM.
Take B14: the Kd is 0.032 nM. This Kd is about 1.8-fold lower than that of the molecule before.
For B15 the value was 0.023 nM; for B16, 0.003 nM; for B17, 0.061 nM.
